For the data set the following is noted: pH 7.

Here are results for one substance from US4335213A (priority 1979, dated 1982).

galactose oxidase: the “Heat stability: loss of activity” value is “about 90%” and the “Heat stability: temperature up to which stable” value is “up to 50 °C”.
